PubChem BioAssay AID2675 (National Center for Advancing Translational Sciences (NCATS), 2010)
The list shows a part of the results, in another mix than the full data. Results filed as inconclusive are left out. Activity calls are given as the source filed them. Calls come from the whole dose curve; as a rule, active = well fitted inhibition curve with a large enough effect in the signal ratio, with a control signal flat (not every such curve was filed as active); inconclusive = small, poorly fitted or top-dose-only effect, or effect the other way, or a change in a side signal; inactive = no such curve, though single readings can be large or run the other way; the % refers to the signal ratio.

By UniProt entry, the sequences of proteins in these tests, tags left out. Where a name states a change or a piece, a line headed by the entry shows the natural chain unless it says otherwise.
UniProt Q9NR56: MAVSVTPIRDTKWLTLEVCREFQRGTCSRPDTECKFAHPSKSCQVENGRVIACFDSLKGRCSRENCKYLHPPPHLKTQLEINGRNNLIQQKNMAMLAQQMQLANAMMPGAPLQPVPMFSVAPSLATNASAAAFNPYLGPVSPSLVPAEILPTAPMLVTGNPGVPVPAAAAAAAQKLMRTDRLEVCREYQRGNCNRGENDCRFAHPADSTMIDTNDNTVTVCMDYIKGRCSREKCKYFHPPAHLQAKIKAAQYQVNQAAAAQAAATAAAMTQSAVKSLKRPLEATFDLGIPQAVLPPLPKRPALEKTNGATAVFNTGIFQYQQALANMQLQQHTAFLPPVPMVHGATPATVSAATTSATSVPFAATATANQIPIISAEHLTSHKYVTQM

Biological target: Muscleblind-like protein 1 (Homo sapiens) (UniProt Q9NR56)
Assay: qHTS Assay for Inhibitors of MBNL1-poly(CUG) RNA binding
Settings: TR-FRET MBNL1-His/biotin-(CUG)12 binding, 665/545 ratio; at 57.5 µM (top of the series) unless noted
% is set by controls: 0 for no effect and ±100 for the full control effect.

Compound | activity change, negative = inhibition
CC(=O)Nc1ccc([As](=O)(O)O)cc1 | inactive: -7.55%
O=P(Nc1nc2ccc(Cl)cc2s1)(c1ccccc1)c1ccccc1 | inactive: -0.36%
Cc1cc(SC(NC(=O)c2ccc(F)cc2)C(Cl)(Cl)Cl)ncn1 (stereo not drawn) | inactive: 0.445%
CCOP(=O)(Nc1ccccc1)OCC | inactive: -9.64%
Cc1ccc(NP(=O)(Oc2ccccc2F)Oc2ccccc2F)nc1 | inactive: 2.64%
CC(C)CC(=O)NC(Sc1ccc(Cl)cc1)C(Cl)(Cl)Cl (stereo not drawn) | inactive: 14.6%
Oc1ccccc1CNc1ccccn1 | inactive: -2.02%
O=C(NC(Sc1ccncn1)C(Cl)(Cl)Cl)c1ccccc1 (stereo not drawn) | inactive: 3.39%
Cc1c2non([O-])c-2c(C)[n+](=O)[n+]1[O-] | inactive: 0.988%
Cc1ccc(N/C(=N/P(=O)(N2CCOCC2)N2CCOCC2)N2CCOCC2)cc1 | inactive: -27.7%
COc1ccccc1OP(=O)(Nc1ccc(C)cn1)Oc1ccccc1OC | inactive: -5.22%
Cc1ccc(OP(=O)(Nc2nccs2)Oc2ccc(C)cc2)cc1 | inactive: -0.581%
CN1CCCC(OC(=O)C(c2ccccc2)c2ccccc2)C1 (stereo not drawn) | inactive: -27%
Clc1ccc(Cl)c(NC2=NCC(CBr)S2)c1 (stereo not drawn) | inactive: -5.42%
Nc1ccc([As](=O)(O)c2ccc(N)cc2)cc1 | inactive: -11.4%
CC(C)=N/N=C(\N)N[N+](=O)[O-] | inactive: -8.1%
CN(C)C(=O)OCCc1n(C)cc[n+]1C | inactive: -3.37%
CC1CCN(C(=O)Oc2c(Cl)cc(Cl)c3cccnc23)CC1 | inactive: 11.9%
CC(=O)N1C2C3N(C(C)=O)C1C1N(C(C)=O)C(C(N1C(C)=O)N3C(C)=O)N2C(C)=O | inactive: -6.19%
CC(C)(C)C(=O)NC(Sc1ccncn1)C(Cl)(Cl)Cl (stereo not drawn) | inactive: -9.79%
O=C(O)CNc1ccc([As](=O)(O)O)cc1 | inactive: -3.56%
O=C(Nc1cc([As](=O)(O)O)ccc1O)c1ccccc1 | inactive: -9.56%
CCOC(=O)Nc1cccc([As](=O)(O)O)c1 | inactive: 7.53%
O=[N+]([O-])c1ccc(Nc2ccc(Oc3ccc([N+](=O)[O-])cc3[N+](=O)[O-])cc2)c([N+](=O)[O-])c1 | inactive: 19.9%
O=P(Nc1ccccn1)(c1cccc2ccccc12)c1cccc2ccccc12 | inactive: 10.8%

Compound | activity change, negative = inhibition
Cc1cc(SC(NC=O)C(Cl)(Cl)Cl)ncn1 (stereo not drawn) | inactive: 1.81%
CCOC(=O)Nc1ccc([As](=O)(O)O)c(O)c1 | inactive: -11.1%
CCCCOc1ccc(C(=O)NCC2(N3CCCCC3)CCCCC2)cc1OC | inactive: -7.72%
CCOC(=O)c1ccc(NC(=O)C(C)(CCl)SC)cc1 (stereo not drawn) | inactive: 8.45%
COP1(=S)c2c(C)nn(CCC#N)c2N=C(c2ccc(F)cc2)N1C (stereo not drawn) | inactive: -0.447%
O=C(COc1ccccc1)OC1CN2CCC1CC2 (stereo not drawn) | inactive: -7.34%
COc1ccc(N/C(=N/P(=O)(N2CCOCC2)N2CCOCC2)N2CCOCC2)cc1 | inactive: -4.36%
O=C(OC1CN2CCC1CC2)C12CC3CC(CC(C3)C1)C2 (stereo not drawn) | inactive: 12.6%
Cc1cc(=O)[nH]c(N[N+](=O)[O-])n1 | inactive: -1.33%
Cc1c2c(nc3ccccc13)SC(C(Cl)Cl)C2 (stereo not drawn) | inactive: -13.3%
COc1ccc2nc(NP(=O)(c3ccccc3)c3ccccc3)sc2c1 | inactive: -5.34%
COc1cc(I)ccc1[As](=O)(O)O | inactive: -4.23%
CC(C)c1ccc(OP(=O)(Nc2ccccn2)Oc2ccccc2F)cc1 (stereo not drawn) | inactive: 0.687%
ClCCSc1nnc(-c2cccnc2)o1 | inactive: -18.8%
CC(C)NC(=O)NP(=O)(Oc1ccccc1)Oc1ccccc1 | inactive: -2.91%
CCN(CC)C(=S)SC(NC=O)C(Cl)(Cl)Cl (stereo not drawn) | inactive: -5.16%
O=[As](O)(c1ccc(O)cc1)c1ccccc1O | inactive: -4.28%
C[As](=O)(O)c1cccc(C(=O)O)c1 | inactive: -9.96%
Cc1ccc2nc3c(c(C)c2c1)CC(C(Cl)Cl)S3 (stereo not drawn) | inactive: 22.2%
Cc1ccc(OP(=O)(Nc2ccc([N+](=O)[O-])cn2)Oc2ccc(C)cc2)cc1 | inactive: 8.06%
CCOP1(=S)c2c(C)nn(CCC#N)c2N=C(c2ccc(F)cc2)N1C (stereo not drawn) | inactive: -6.64%
CCOP1(=S)c2c(C)nn(CCC#N)c2N=C(c2ccccc2F)N1C (stereo not drawn) | inactive: 13.2%
O=P(Nc1nccs1)(Oc1ccccc1)Oc1ccccc1 | inactive: -18%
O=P(Nc1nccs1)(c1ccccc1)c1nc2ccccc2s1 (stereo not drawn) | inactive: 1.79%
Nc1ccccc1[As](=O)(O)c1ccccc1 | inactive: 4.13%

Compound | activity change, negative = inhibition
O=C(O)COc1ccc([As](=O)(O)O)cc1[N+](=O)[O-] | inactive: 4.02%
CCCOP(=S)(Nc1nc(N)cc(=O)[nH]1)OCCC | inactive: -11.1%
COc1cc(C2NCCC3(OCCO3)C2(C)C)cc(OC)c1OC (stereo not drawn) | inactive: -2.88%
CCOP(=O)(Nc1cccc2ccccc12)OCC | inactive: -3.13% [at 11.5 µM]
O=[As](O)(O)c1cccnc1 | inactive: 11.9%
COc1cc(C(=O)NCC2(N3CCOCC3)CCCCC2)cc(Cl)c1OC(C)C | inactive: -3.27%
CS(=O)(=O)c1ccc(Cl)c(NC(=O)COC(=O)C(O)(c2ccccc2)c2ccccc2)c1 | inactive: 0.799%
Cc1cccc(OCC(=O)OC2CN3CCC2CC3)c1 (stereo not drawn) | inactive: 2.55%
O=[As](O)(c1ccccc1Br)c1ccccc1Br | inactive: 1.44%
CC(C)/C=N\N=C(\N)N[N+](=O)[O-] | inactive: -5.44%
CCOP(=O)(Nc1ccc(C)cn1)OCC | inactive: -6.22%
CCC1=CC2Cc3nc4ccc(Cl)cc4c(N)c3C(C1)C2 (stereo not drawn) | inactive: -0.198%
CCOP(=O)(NC(=NC(C)c1ccccc1)NC(C)c1ccccc1)OCC (stereo not drawn) | inactive: -8.11%
Clc1n[nH]nc1-c1nn[nH][15n]1 | inactive: 2.02%
CC(C)(C)C(=O)NC(Sc1ncccn1)C(Cl)(Cl)Cl (stereo not drawn) | inactive: -11.5%
O=P1(Nc2ncccn2)COc2ccccc2OC1 | inactive: -18.9%
Cc1ccc(OCC(=O)OC2CN3CCC2CC3)cc1 (stereo not drawn) | inactive: -14.9%
O=[As](O)(c1cccs1)c1cccs1 | inactive: 1.94%
Nc1cccc([As](=O)(O)c2ccccc2)c1 | inactive: -6.34%
Cc1nn(-c2ccccc2)c2c1P(=O)(N1CCOCC1)N(C)C(c1ccccc1)=N2 (stereo not drawn) | inactive: 6.67%
CC1CCC(C(C)C)C(OP(=O)(Nc2ccccn2)c2ccccc2)C1 (stereo not drawn) | inactive: -4.22%
Cc1ccc(C(=O)OC2CN3CCC2CC3)cc1 (stereo not drawn) | inactive: 3.94%
CN(C)C1(CNC(=O)c2ccc(S(C)(=O)=O)cc2)CCCCC1 | inactive: -1.96%
